Test results from patent US8101552B2, “Cyclic phosphates as plant growth regulators” (dated 2012).

Legend:
[1] = test system: Rubia roots (clone R4C); assay: Rubia root growth on solid MS under light or darkness; details: 1 μM; for biomass accumulation of Rubia roots / growth rate of Rubia roots: under darkness; for positive effects on biomass accumulation and growth rate of Rubia roots: under light
[2] = test system: African violet; assay: Direct organogenesis on African violet leaf, two-month treatment (FIG. 2)
[3] = test system: African violet; assay: Plantlet growth from excised African violet leaves on solid MS medium (Example 1); details: for effect on plantlet growth: after 4 weeks; for development of shoots and roots from leaf base to form new plantlets: no other plant growth regulators, αGP at 200 μM; for biomass accumulated by entire plantlet cluster: after 8 weeks
[4] = test system: Saintpaulia ionantha; assay: Organogenesis (propagules) from leaf cuttings in MS medium (Example 3); details: 2 successive cultures each of 2 months
[5] = test system: transformed callus of Rubia tinctorum; assay: Survival and growth of light-sensitive transformed callus under light (Example 2); details: various concentrations

Molecule | biomass accumulation of Rubia roots [1] | growth rate of Rubia roots [1] | positive effects on biomass accumulation and growth rate of Rubia roots [1] | effect on direct organogenesis (number and biomass of propagules on leaf) [2] | effect on plantlet growth ([3]; 200 μM) | development of shoots and roots from leaf base to form new plantlets [3] | number of plantlets produced per original leaf cutting ([4]; 1 μM) | number of plantlets produced per original leaf cutting ([4]; 10 μM) | number of plantlets produced per original leaf cutting ([4]; 100 μM) | number of plantlets produced per original leaf cutting ([4]; 200 μM) | biomass accumulated by entire plantlet cluster ([3]; 1 μM) [mg FW] | biomass accumulated by entire plantlet cluster ([3]; 10 μM) [mg FW] | biomass accumulated by entire plantlet cluster ([3]; 100 μM) [mg FW] | biomass accumulated by entire plantlet cluster ([3]; 200 μM) [mg FW] | callus survival and growth under light [5]
O=[N+]([O-])C1(CO)COP(O)OC1 (stereo not shown) | stimulated biomass accumulation | stimulated | not observed | had an effect on direct organogenesis | – | – | – | – | – | – | – | – | – | – | –
[Na+].[O-]P1OCCCO1 | – | – | – | had an effect on direct organogenesis | – | – | – | – | – | – | – | – | – | – | –
DL-α-Glycerophosphate | – | – | – | – | only an insignificant effect | no such growth was observed | – | – | – | – | – | – | – | – | –
O=[N+]([O-])C1(CO)COP([O-])OC1.[Na+] (stereo not shown) | stimulated biomass accumulation | stimulated | not observed | had an effect on direct organogenesis | had an effect on plantlet growth | shoots and roots developed from the leaf base | 6.5 | 4 | 8.5 | 0.5 | 228 | 470 | 412 | 541 | allowing the callus to survive and grow under light
